# Test results from EP1144011B1, “PRODRUG COMPOUNDS AND PROCESS FOR PREPARATION THEREOF” (Coulter Pharmaceutical, Inc., priority 1998, dated 2000).
# Legend:
# [1] = Aggregation: filtration through Centricon filter units of different MWCO; format: physicochemical; details: for 3000 MWCO Filt.: quantitated at λ475 nm
# [2] = Acute toxicity after intravenous injection in mice; format: in vivo; details: 174 µMol /ml
# Procedure: Many cytotoxic compounds inherently have low solubility. Positively charged anthracyclines for example form aggregates at high concentration and these aggregates induce intravenous coagulation when the aggregates are administered intravenously. We have discovered that trouase recognizes a specific set of hydrophobic peptide sequences. […] Since most peptides have exposed, positively-charged amino termini at physiological pH, these aggregates form a polypositively charged surface in vivo. […] This renders any positively charged prodrugs that are formulated with aggregate suspension unsuitable for therapeutic use.
# Several experiments support the hypothesis that aggregates are formed with peptide conjugated Doxorubicins. […] A solution to this aggregate problem makes these peptide prodrugs more practical. When these peptide prodrugs form aggregates because of insufficient solubility at the desired formulated concentrations, the stabilizing group on the peptide chain must terminate in a negatively charged or a neutral functionality. The use of succinyl as a stabilizing group on the peptide prodrug renders the produg not acutely toxic (see example 6). This solves an important problem in the use of peptide prodrugs as practical therapies for humans. […]
# [3] = 17.4 µMol/ml in distilled water, 2 hr at 1500g, passing through filter
# [4] = 17.4 µMol/ml in distilled water, 2 hr at 1500g, retained
smiles,measurement,setting,value
"COc1cccc2c1C(=O)c1c(O)c3c(c(O)c1C2=O)C[C@@](O)(C(=O)CO)C[C@@H]3O[C@H]1C[C@H](NC(=O)[C@H](CC(C)C)NC(=O)[C@H](C)NC(=O)[C@H](CC(C)C)NC(=O)CCN)[C@H](O)[C@H](C)O1 [βAlaLeuAlaLeu-Dox, N-β-Ala-L-Leu-L-Ala-L-Leu-Doxorubicin]",aggregate size (a significant percentage of aggregates),[1]; 17.4 µMol/ml aqueous solution,> 50 kD
same,3000 MWCO Filt.,[1]; [3],5%
same,3000 MWCO Filt.,"[1]; 17.4 µMol/ml in distilled water, 2 hr at 1500g, passing through filter, listed as Conj.",4.9%
same,10000 MWCO Filt.,[1]; [3],10%
same,30000 MWCO Filt.,[1]; [3],36%
same,50000 MWCO Filt.,[1]; [3],53%
same,3000 MWCO Ret.,[1]; [4],89%
same,10000 MWCO Ret.,[1]; [4],76%
same,30000 MWCO Ret.,[1]; [4],64%
same,50000 MWCO Ret.,[1]; [4],over 40%
same,50000 MWCO Ret.,"[1]; 17.4 µMol/ml in distilled water, 2 hr at 1500g, retained, listed as Conj.",43%
same,Survival time,[2]; 1 hr pretreatment heparin i.p. 4000 I.U.,>9 days
same,Survival time,"[2]; Control (iv), heparin 0 I.U.",0 days
